The target of experiment [1] is Hepatocyte growth factor receptor (Homo sapiens, UniProt P08581).
Experiment [2] addresses Tyrosine-protein kinase Lck (Homo sapiens, UniProt P06239).
The target of experiment [3] is cAMP-dependent protein kinase catalytic subunit alpha (Homo sapiens, UniProt P17612). Put plainly: Inhibition of PKAalpha.

Regarding `COc1cc2nccc(Oc3ccc(NC(=O)c4c(C)n(C)n(-c5ccccc5)c4=O)cc3F)c2cc1OC`, the concentration for half-maximal inhibition (IC50) turned out to be 10 nM in experiment [1], 10 nM in experiment [2] and 100000 nM in experiment [3].

One may read the IC50 as the midpoint of a concentration-inhibition curve.

(Values after ChEMBL document CHEMBL2029218, “Structure-based design of novel class II c-Met inhibitors: 2. SAR and kinase selectivity profiles of the pyrazolone series” (J Med Chem, 2012).)
